In PubChem BioAssay AID738 (SRMLSC, 2007):
The list shows a part of the results, in another mix than the full data. Active and inactive are the calls of the source. Rule as the data show it: active = inhibition above about 30%; inactive = the rest.

assay: growth inhibition of yeast control strain, primary screen, counter-screen for post-Golgi transport modulator project (AID 738); conditions: efflux-deficient yeast background strain, growth absorbance A615, 16 h; at 10 µM; hits give high values

SMILES | inhibition
COP1(=S)c2c(C)nn(CCC#N)c2N=C(c2ccc(F)cc2)N1C (stereo not given) | inactive: -1.4%
O=C(COc1ccccc1)OC1CN2CCC1CC2 (stereo not given) | inactive: 8.94%
O=C(OC1CN2CCC1CC2)C12CC3CC(CC(C3)C1)C2 (stereo not given) | inactive: 0%
CCN(CC)C(=S)SC(NC=O)C(Cl)(Cl)Cl (stereo not given) | inactive: 1.25%
CCOP1(=S)c2c(C)nn(CCC#N)c2N=C(c2ccccc2F)N1C (stereo not given) | inactive: 5.43%
O=P(Nc1nccs1)(c1ccccc1)c1nc2ccccc2s1 (stereo not given) | inactive: 3.84%
CCOP1(=S)c2c(C)nn(CCC#N)c2N=C(c2ccc(F)cc2)N1C (stereo not given) | inactive: 2.91%
O=[N+]([O-])c1ccc2c(c1)nnn2O | inactive: -3.15%
Cc1cccc(OCC(=O)OC2CN3CCC2CC3)c1 (stereo not given) | inactive: 0.14%
O=P1(Nc2ccccn2)COc2ccccc2OC1 | inactive: 1.82%
Clc1n[nH]nc1-c1nn[nH][15n]1 | inactive: 0.76%
Cc1nn(-c2ccccc2)c2c1P(=O)(N1CCOCC1)N(C)C(c1ccccc1)=N2 (stereo not given) | inactive: -0.34%
O=P1(Nc2ncccn2)COc2ccccc2OC1 | inactive: 3.83%
Cc1ccc(OCC(=O)OC2CN3CCC2CC3)cc1 (stereo not given) | inactive: 9.01%
O=P1(Nc2ccc(Br)cn2)COc2ccccc2OC1 | inactive: 1.96%
O=C(OC1CN2CCC1CC2)c1cccc(Cl)c1 (stereo not given) | inactive: 12.4%
O=P(Nc1nccs1)(c1ccccc1)c1ccccc1 | inactive: 1.4%
c1nnnn1CCn1cnnn1 | inactive: 8.54%
O=P1(Nc2nc3ccc(Cl)cc3s2)COc2ccccc2O1 (stereo not given) | inactive: -12.4%
CCOC(=O)NC(Sc1ccccc1)C(Cl)(Cl)Cl (stereo not given) | inactive: -15.6%
CCC(=O)N1C2C3N(C(=O)CC)C1C1N(C(=O)CC)C(C(N1C(=O)CC)N3C(=O)CC)N2C(=O)CC | inactive: -7.15%
COC(=O)c1cc2c(s1)N=C(c1ccccc1)N(C)P2(=O)N1CCOCC1 (stereo not given) | inactive: 1.07%
CCOP(=O)(Nc1ccccc1)OCC | inactive: 6.56%
Oc1ccccc1CNc1ccccn1 | inactive: 6.52%
Cc1c2non([O-])c-2c(C)[n+](=O)[n+]1[O-] | inactive: -0.97%
CC(C)CC(=O)NC(Sc1ccc(Cl)cc1)C(Cl)(Cl)Cl (stereo not given) | inactive: 8.29%
CCc1nc2c(n1)c1c(non1O)c1c2no[n+]1[O-] | inactive: -2.56%
CC(=O)N1C2C3N(C(C)=O)C1C1N(C(C)=O)C(C(N1C(C)=O)N3C(C)=O)N2C(C)=O | inactive: 6.54%
O=[N+]([O-])c1cccc2n[nH]nc12 | inactive: 9.19%
CC1CCN(C(=O)Oc2c(Cl)cc(Cl)c3cccnc23)CC1 | active: 32.3%
